According to patent publication US11090391B2, “Protein nanocages with enhanced mucus penetration for targeted tissue and intracellular delivery” (The Johns Hopkins University, priority 2016, dated 2021):

Test: PEG surface density, fluorometric determination
Type: physicochemical
Settings: reassembled FTn by % PEGylated protein
Procedure: The solution was placed on a rotary incubator for 4 hours and then concentrated by centrifugation (Amicon Ultra-0.5 mL 30 K MWCO; Millipore). […] The density was fluorometrically determined (Suk J S, et al., Advanced Drug Delivery Reviews, 99(Pt A):28-51, Epub 2015).
The number of PEG chains per PEG-FTn was fluorometrically determined.
This was calculated with the following formula where D is the average diameter of PEG-FTn: [Γ]=PEG molecules÷[4π(D/2)^2].
The ratio [Γ/SA] of total unconstrained PEG surface coverage area [Γ] to total particle surface area [SA] determines the surface PEG conformation: low-density mushroom and high-density brush regimes when [Γ/SA]<1 and [Γ/SA]≥1, respectively (Xu Q, et al., ACS Nano, 9. 9217-9227 (2015); Auguste D T, Biomaterials, 27, 2599-2608 (2006)). Briefly, the surface area occupied by one unconstrained PEG chain was calculated by random-walk statistics and given by a sphere of diameter ξ: ξ=0.76 m^1/2[Å], where m is MW of PEG chain, and the surface area occupied by one PEG molecule can be determined by π(ξ/2)^2. Thus, the surface area occupied by unconstrained PEG of MWs 10, 5 and 2 kDa is 45, 23 and 9 nm^2, respectively. The total unconstrained PEG surface area coverage [Γ] was then calculated by multiplying the area occupied at the surface per PEG chain by the total number of PEG chains per protein nanocage. Thus, the [Γ/SA] ratio is 2.2±0.3, which falls in the dense brush regime.

% PEGylated protein 25: FTn reassembled with 25% PEG2k-PEGylated ferritin protein
PEG2k density: 0.11 #/nm^2

% PEGylated protein 37.5: FTn reassembled with 37.5% PEG2k-PEGylated ferritin protein
PEG2k density: 0.16 #/nm^2

% PEGylated protein 87.5: FTn reassembled with 87.5% PEG2k-PEGylated ferritin protein
PEG2k density: 0.37 #/nm^2
